According to patent US8563000B2, “Melanocortin receptor ligands modified with hydantoin” (Ipsen Pharma S.A.S., priority 2007, dated 2013):
Read-outs that look alike come from different tables or passages of the source. Values belong to the compound of their own block, whether it stands above or below them.

Sequences of proteins named here, by UniProt entry; tags and fusion partners are left off. A change or cut given only in a name is not applied to a line headed by its entry.
UniProt P32245, whole entry: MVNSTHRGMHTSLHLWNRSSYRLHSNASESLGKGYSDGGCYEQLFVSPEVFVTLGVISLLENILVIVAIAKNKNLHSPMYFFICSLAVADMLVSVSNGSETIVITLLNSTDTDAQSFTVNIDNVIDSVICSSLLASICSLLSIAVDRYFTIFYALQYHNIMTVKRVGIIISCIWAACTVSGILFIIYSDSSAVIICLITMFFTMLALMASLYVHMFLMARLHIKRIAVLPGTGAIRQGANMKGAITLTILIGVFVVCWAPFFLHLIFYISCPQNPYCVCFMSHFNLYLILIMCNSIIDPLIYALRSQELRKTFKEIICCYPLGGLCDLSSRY
UniProt Q01726: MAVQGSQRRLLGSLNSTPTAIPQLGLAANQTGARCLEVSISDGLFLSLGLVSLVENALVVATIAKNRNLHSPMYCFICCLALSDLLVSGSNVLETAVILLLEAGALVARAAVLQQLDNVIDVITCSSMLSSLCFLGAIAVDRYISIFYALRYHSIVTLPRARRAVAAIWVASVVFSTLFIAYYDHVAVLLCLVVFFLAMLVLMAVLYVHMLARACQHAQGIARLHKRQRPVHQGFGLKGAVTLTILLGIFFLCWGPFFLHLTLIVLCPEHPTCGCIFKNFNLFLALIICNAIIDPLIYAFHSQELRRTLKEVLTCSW
UniProt P41968: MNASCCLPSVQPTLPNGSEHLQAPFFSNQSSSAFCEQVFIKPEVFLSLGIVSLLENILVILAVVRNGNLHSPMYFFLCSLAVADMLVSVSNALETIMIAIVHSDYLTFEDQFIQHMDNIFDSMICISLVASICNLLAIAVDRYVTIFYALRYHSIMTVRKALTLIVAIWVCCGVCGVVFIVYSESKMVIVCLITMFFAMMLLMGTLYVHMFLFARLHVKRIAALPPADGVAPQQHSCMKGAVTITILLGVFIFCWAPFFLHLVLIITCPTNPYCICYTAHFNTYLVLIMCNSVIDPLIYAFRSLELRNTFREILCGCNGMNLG
UniProt P33032: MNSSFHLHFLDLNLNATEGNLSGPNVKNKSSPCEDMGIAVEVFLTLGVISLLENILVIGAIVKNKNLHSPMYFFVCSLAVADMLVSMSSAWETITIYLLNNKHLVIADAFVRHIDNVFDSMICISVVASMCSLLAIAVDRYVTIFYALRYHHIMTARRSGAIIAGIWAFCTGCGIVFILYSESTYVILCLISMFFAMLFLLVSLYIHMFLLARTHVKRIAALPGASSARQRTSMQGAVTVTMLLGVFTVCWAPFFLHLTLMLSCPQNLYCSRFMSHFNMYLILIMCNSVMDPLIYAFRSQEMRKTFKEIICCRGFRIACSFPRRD

What was measured:
[1] = target: T1, hMC4 (Homo sapiens, UniProt P32245); test: Cyclic AMP bioassay (ECL), CHO-K1 cells expressing hMC4; assay type: cell-based; conditions: intracellular cAMP
T1 construct: expressed in transfected cells; host or cells: CHO-K1

[2] = target: T2, hMC1 (Homo sapiens, UniProt Q01726); test: Radioligand binding assay, [125I]-NDP-α-MSH, CHO-K1 membranes
T2 construct: expressed in transfected cells; host or cells: CHO-K1
Description: (§1) Cellular membranes used for the in vitro receptor binding assays were obtained from transgenic CHO-K1 cells stably expressing hMC-R receptor subtypes 1, 3, 4 or 5. […] The pellets were re-suspended in the same buffer and centrifuged at 50,000 g for 10 minutes at approximately 4° C. The washed pellets containing the cellular membranes were stored at approximately −80° C.
(§2) Filters were washed three times with 50 mM Tris-HCl at pH 7.4 at a temperature of approximately 0-4° C. and then assayed for radioactivity using a Packard Topcount® scintillation counter. Binding data were analyzed by computer-assisted non-linear regression analysis (XL fit; IDBS).

[3] = target: T3, hMC3 (Homo sapiens, UniProt P41968); test: as above
T3 construct: expressed in transfected cells; host or cells: CHO-K1
Description: as §1, §2

[4] = target: T1, hMC4; test: as above
Description: as §1, §2

[5] = target: T4, hMC5 (Homo sapiens, UniProt P33032); test: as above
T4 construct: expressed in transfected cells; host or cells: CHO-K1
Description: as §1, §2

[6] = target: T4, hMC5; test: Cyclic AMP bioassay (ECL), CHO-K1 cells expressing hMC5; assay type: cell-based; conditions: intracellular cAMP
[7] = competition with [125I]-NDP-α-MSH

SMILES: CCCC[C@@H](C(=O)N[C@H]1CSSC[C@@H](C(N)=O)NC(=O)[C@H](Cc2c[nH]c3ccccc23)NC(=O)[C@H](CCCNC(=N)N)NC(=O)[C@@H](Cc2ccccc2)NC(=O)[C@H](Cc2cnc[nH]2)NC(=O)[C@@H](C)NC1=O)N1C(=O)NC2(CCCCC2)C1=O [Hydantoin(C(O)-(A6c-Nle))-cyclo(Cys-D-Ala-His-D-Phe-Arg-Trp-Cys)-NH2]
EC50 [1]: 0.0018 µM

SMILES: C[C@H]1NC(=O)[C@@H](NC(=O)CN2C(=O)CNC2=O)CSSC(C)(C)[C@@H](C(N)=O)NC(=O)[C@H](Cc2c[nH]c3ccccc23)NC(=O)[C@H](CCCNC(=N)N)NC(=O)[C@@H](Cc2ccccc2)NC(=O)[C@H](Cc2cnc[nH]2)NC1=O [Hydantoin(C(O)-(Gly-Gly))-cyclo(Cys-D-Ala-His-D-Phe-Arg-Trp-Pen)-NH2]
Ki [2]: 0.127 µM
Ki [3]: 0.811 µM
Ki [4]: 0.0104 µM
Ki [5]: 0.381 µM

SMILES: C[C@H]1NC(=O)[C@@H](N2C(=O)NC3(CCCCC3)C2=O)CSSC[C@@H](C(N)=O)NC(=O)[C@H](Cc2c[nH]c3ccccc23)NC(=O)[C@H](CCCNC(=N)N)NC(=O)[C@@H](Cc2ccccc2)NC(=O)[C@H](Cc2cnc[nH]2)NC1=O [cyclo[Hydantoin(C(O)-(A6c-Cys))-D-Ala-His-D-Phe-Arg-Trp-Cys]-NH2]
Ki [3]: 1.76 µM

SMILES: C[C@H]1NC(=O)[C@@H](N2C(=O)NC(C)(C)C2=O)CSSC[C@@H](C(N)=O)NC(=O)[C@H](Cc2c[nH]c3ccccc23)NC(=O)[C@H](CCCNC(=N)N)NC(=O)[C@@H](Cc2ccccc2)NC(=O)[C@H](Cc2cnc[nH]2)NC1=O [cyclo[Hydantoin(C(O)-(Aib-Cys))-D-Ala-His-D-Phe-Arg-Trp-Cys]-NH2]
Ki [5, 7]: > 10 µM

Ki [5]: 1.1 µM
SMILES: N=C(N)NCCC[C@@H]1NC(=O)[C@@H](Cc2ccc3ccccc3c2)NC(=O)C2(CCCC2)N2C(=O)N[C@@H](CC(=O)NCCCC[C@@H](C(N)=O)NC(=O)[C@H](Cc3c[nH]c4ccccc34)NC1=O)C2=O [cyclo[Hydantoin(C(O)-(Asp-A5c))-D-2-Nal-Arg-Trp-Lys]-NH2]

Ki [5]: 1.1 µM
SMILES: N=C(N)NCCC[C@@H]1NC(=O)[C@@H](Cc2ccc3ccccc3c2)NC(=O)C2(CCNCC2)N2C(=O)N[C@@H](CC(=O)NCCCC[C@@H](C(N)=O)NC(=O)[C@H](Cc3c[nH]c4ccccc34)NC1=O)C2=O [cyclo[Hydantoin(C(O)-(Asp-Apc))-D-2-Nal-Arg-Trp-Lys]-NH2]

SMILES: C[C@@H]1C(=O)N[C@@H](Cc2cnc[nH]2)C(=O)N[C@H](Cc2ccccc2)C(=O)N[C@@H](CCCNC(=N)N)C(=O)N[C@@H](Cc2c[nH]c3ccccc23)C(=O)N[C@H](C(N)=O)CSSC[C@@H]2NC(=O)N1C2=O [cyclo[Hydantoin(C(O)-(Cys-D-Ala))-His-D-Phe-Arg-Trp-Cys]-NH2]
Ki [2]: 0.23 µM
Ki [3]: 7.59 µM
Ki [4]: 0.126 µM
Ki [5]: 7.02 µM

SMILES: C[C@@H]1C(=O)N[C@@H](Cc2cnc[nH]2)C(=O)N[C@H](Cc2ccccc2)C(=O)N[C@@H](CCCNC(=N)N)C(=O)N[C@@H](Cc2c[nH]c3ccccc23)C(=O)N[C@H](C(N)=O)CNC(=O)CC[C@@H]2NC(=O)N1C2=O [cyclo[Hydantoin(C(O)-(Glu-D-Ala))-His-D-Phe-Arg-Trp-Dap]-NH2]
EC50 [6]: > 10 µM
Ki [5]: > 10 µM

SMILES: C[C@@H]1C(=O)N[C@@H](Cc2cnc[nH]2)C(=O)N[C@H](Cc2ccccc2)C(=O)N[C@@H](CCCNC(=N)N)C(=O)N[C@@H](Cc2c[nH]c3ccccc23)C(=O)N[C@H](C(N)=O)CCCCNC(=O)CC[C@@H]2NC(=O)N1C2=O [cyclo[Hydantoin(C(O)-(Glu-D-Ala))-His-D-Phe-Arg-Trp-Lys]-NH2]
Ki [5]: > 10 µM

SMILES: C[C@@H]1C(=O)N[C@@H](Cc2cnc[nH]2)C(=O)N[C@H](Cc2ccccc2)C(=O)N[C@@H](CCCNC(=N)N)C(=O)N[C@@H](Cc2c[nH]c3ccccc23)C(=O)N[C@H](C(N)=O)CCCNC(=O)CC[C@@H]2NC(=O)N1C2=O [cyclo[Hydantoin(C(O)-(Glu-D-Ala))-His-D-Phe-Arg-Trp-Orn]-NH2]
Ki [5]: > 10 µM

SMILES: CC(C)C[C@@H]1NC(=O)N([C@H]2CSSC[C@@H](C(N)=O)NC(=O)[C@H](Cc3c[nH]c4ccccc34)NC(=O)[C@H](CCCNC(=N)N)NC(=O)[C@@H](Cc3ccccc3)NC(=O)[C@H](Cc3cnc[nH]3)NC(=O)[C@@H](C)NC2=O)C1=O [cyclo[Hydantoin(C(O)-(Leu-Cys))-D-Ala-His-D-Phe-Arg-Trp-Cys]-NH2]
Ki [5, 7]: > 10 µM

SMILES: CC(C)[C@@H]1NC(=O)N([C@H]2CSSC[C@@H](C(N)=O)NC(=O)[C@H](Cc3c[nH]c4ccccc34)NC(=O)[C@H](CCCNC(=N)N)NC(=O)[C@@H](Cc3ccccc3)NC(=O)[C@H](Cc3cnc[nH]3)NC(=O)[C@@H](C)NC2=O)C1=O [cyclo[Hydantoin(C(O)-(Val-Cys))-D-Ala-His-D-Phe-Arg-Trp-Cys]-NH2]
Ki [5, 7]: > 10 µM
